Results as given in PMC4869123 (Scientific Reports, 2016).

By UniProt entry, the sequences of proteins in these tests, tags left out. Residues count along the entry.
UniProt Q16552, 24-155: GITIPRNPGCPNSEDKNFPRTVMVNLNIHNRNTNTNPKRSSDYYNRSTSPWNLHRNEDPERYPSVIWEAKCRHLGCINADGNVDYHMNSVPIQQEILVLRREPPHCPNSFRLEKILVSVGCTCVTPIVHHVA
UniProt Q96PD4, 31-163 C47S/C137S: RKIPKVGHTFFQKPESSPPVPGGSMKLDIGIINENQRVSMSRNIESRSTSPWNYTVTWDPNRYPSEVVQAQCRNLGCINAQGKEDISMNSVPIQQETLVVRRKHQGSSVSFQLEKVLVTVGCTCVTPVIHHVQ
UniProt P01375, 77-233 limits assumed: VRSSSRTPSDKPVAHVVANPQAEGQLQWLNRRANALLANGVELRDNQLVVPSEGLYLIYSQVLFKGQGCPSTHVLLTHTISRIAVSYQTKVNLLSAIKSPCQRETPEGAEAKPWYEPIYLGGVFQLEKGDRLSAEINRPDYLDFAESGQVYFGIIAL
UniProt Q96F46, 33-866: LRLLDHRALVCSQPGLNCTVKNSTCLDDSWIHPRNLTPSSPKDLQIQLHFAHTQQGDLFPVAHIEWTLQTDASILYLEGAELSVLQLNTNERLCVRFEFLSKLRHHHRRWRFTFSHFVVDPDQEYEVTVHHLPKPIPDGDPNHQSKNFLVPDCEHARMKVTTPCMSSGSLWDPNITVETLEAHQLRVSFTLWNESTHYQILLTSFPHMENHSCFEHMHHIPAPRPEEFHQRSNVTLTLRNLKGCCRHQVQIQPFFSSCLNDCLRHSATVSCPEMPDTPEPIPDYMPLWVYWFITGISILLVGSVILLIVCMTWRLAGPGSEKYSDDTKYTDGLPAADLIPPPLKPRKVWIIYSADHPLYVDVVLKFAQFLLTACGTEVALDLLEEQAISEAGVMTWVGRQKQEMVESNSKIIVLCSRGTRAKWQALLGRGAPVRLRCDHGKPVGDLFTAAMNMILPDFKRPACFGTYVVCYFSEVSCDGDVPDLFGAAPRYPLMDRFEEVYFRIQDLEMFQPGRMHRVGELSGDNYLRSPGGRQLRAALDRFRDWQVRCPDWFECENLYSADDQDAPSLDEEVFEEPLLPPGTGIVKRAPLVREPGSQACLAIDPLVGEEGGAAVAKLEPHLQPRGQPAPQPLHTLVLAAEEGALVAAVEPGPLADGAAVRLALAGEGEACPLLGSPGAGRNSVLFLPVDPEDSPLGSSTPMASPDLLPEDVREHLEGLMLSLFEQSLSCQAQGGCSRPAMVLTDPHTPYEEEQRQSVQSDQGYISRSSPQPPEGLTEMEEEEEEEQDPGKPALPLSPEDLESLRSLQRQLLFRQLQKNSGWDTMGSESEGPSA

Legend:
human IL-17A = target: T1, human IL-17A (Homo sapiens, UniProt Q16552); assay: BJ human fibroblast cell assay, IL-17A stimulated GRO-α production; assay type: cell-based; details: BJ human fibroblast cells, 1 ng/ml human IL-17A
T1 construct: host or cells: added to BJ human fibroblasts (ATCC CRL2522)

human IL-17F homodimer = human IL-17F homodimer (Homo sapiens, UniProt Q96PD4, C137S/C47S); details: SPR, concentrations up to 100 nM
TNF-α [1] = target: T2, TNF-α (Homo sapiens, UniProt P01375); assay: BJ human fibroblast, TNF-α stimulated IL-6 production; assay type: cell-based; details: 10 ng/ml TNF-α, concentrations up to 10 μM
T2 construct: purchased Sigma-Aldrich, St Louis, MO
Procedure: Figure S2. Inhibition of IL-17Ainduced IL-6 production by HAP in BJ
fibroblasts. BJ cells were cultured in the presence of TNF-α (10ng/ml) or IL-
17A (1 ng/ml) with a series of concentration of HAPfor 24 hours after which
time cell culture supernatants were removed for analysis of IL-6 production.It
(1 picture or pasted object on this page, not shown here)

mouse IL-17A = target: T3, mouse IL-17A (Mus musculus, UniProt Q62386); assay: SPR binding to immobilized mouse IL-17A
T3 construct: purchased Cell Signaling
T3 sequence (Q62386 26-158): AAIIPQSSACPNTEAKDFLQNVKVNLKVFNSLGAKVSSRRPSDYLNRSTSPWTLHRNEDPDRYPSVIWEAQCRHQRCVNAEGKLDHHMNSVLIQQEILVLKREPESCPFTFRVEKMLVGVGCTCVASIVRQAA

IL-17RA = IL-17RA (Homo sapiens, UniProt Q96F46); assay: SPR binding to immobilized IL-17RA; details: concentrations up to 100 nM
TNF-α [2] = target: T2, TNF-α; assay: Primary human keratinocytes stimulated by TNF-α alone, baseline cytokine production; assay type: cell-based; details: 10 ng/ml TNF-α alone, listed as HAP
Procedure: Figure 1 Binding of HAP to IL-17A and inhibition of IL-17A/IL-17RA are measured by SPR, FRET and cell-based assays. (A) Typical SPR sensorgrams (black) of HAP at indicated concentrations binding to biotinylated human IL-17A immobilized on a streptavidin chip surface, fitted with single site binding model curves (red). Kinetic parameters (ka, kd) were obtained by a global fit using three concentrations in triplicate. KD determined by the standard equation, KD = kd/ka. (B) HAP inhibits SPR signaling of IL-17A binding to immobilized IL-17RA. Data are mean and error bars of +/− standard deviation of three measurements. (C) Inhibition of IL-17A and IL-17RA binding by HAP measured by FRET assay. Data are mean and error bars of +/− standard deviation from 299 experiments, each performed in duplicate. […] Data are mean and error bars of +/− standard deviation of duplicated experiments. […]; (C) HAP: 0.8(+/-0.2) nM DOUBTS OF THE COPYIST ABOUT THIS PICTURE: Panel A prints no substance label of its own (only 'IL17A - 3200 RU'); […]
While either IL-17A or TNF-α alone can stimulate the release of multiple inflammatory cytokines, when acting together they can synergistically enhance each other’s effects (Supplementary Figure S5). These integrative responses to IL-17A and TNF-α in human keratinocytes have been reported to account for key inflammatory pathogenic circuits in psoriasis. […]

Row | SMILES | Cell IC50 (human IL-17A) | pIC50 (human IL-17A) | binding to immobilized human IL-17F homodimer (human IL-17F homodimer) | inhibition of TNF-α stimulated IL-6 production (TNF-α [1]) | weaker affinity for mouse IL-17A versus human IL-17A (mouse IL-17A) [fold] | binding to immobilized IL-17RA (IL-17RA) | inhibition of baseline IL-8, IL-6 and CCL-20 production (TNF-α [2])
1 | CC[C@H](C)[C@H](NC(C)=O)C(=O)N[C@H](C(=O)N[C@H](C(=O)N[C@H](C(=O)N[C@H](C(=O)N1CCC[C@H]1C(=O)N[C@@H](C)C(=O)N[C@@H](CC(=O)O)C(=O)N[C@@H](CC(C)C)C(=O)N[C@@H](Cc1c[nH]c2ccccc12)C(=O)N[C@@H](CC(=O)O)C(=O)N[C@@H](Cc1c[nH]c2ccccc12)C(=O)N[C@H](C(=O)N[C@@H](CC(N)=O)C(=O)N[C@@H](CCCCN(C)C)C(N)=O)[C@@H](C)CC)[C@@H](C)CC)[C@@H](C)O)C(C)C)[C@@H](C)O [Compound 38] | comparable in activity with HAP | 7.92 |  |  |  |  | 
2 | CC[C@H](C)[C@H](NC(C)=O)C(=O)N[C@@H](Cc1c[nH]cn1)C(=O)N[C@H](C(=O)N[C@H](C(=O)N[C@H](C(=O)N1CCC[C@H]1C(=O)N[C@@H](C)C(=O)N[C@@H](CC(=O)O)C(=O)N[C@@H](CC(C)C)C(=O)N[C@@H](Cc1c[nH]c2ccccc12)C(=O)N[C@@H](CC(=O)O)C(=O)N[C@@H](Cc1c[nH]c2ccccc12)C(N)=O)[C@@H](C)CC)[C@@H](C)O)C(C)C [Compound 37] | no longer active | < 6.00 |  |  |  |  | 
3 | CC[C@H](C)[C@H](NC(C)=O)C(=O)N[C@@H](Cc1c[nH]cn1)C(=O)N[C@H](C(=O)N[C@H](C(=O)N[C@H](C(=O)N1CCC[C@H]1C(=O)N[C@@H](C)C(=O)N[C@@H](CC(=O)O)C(=O)N[C@@H](CC(C)C)C(=O)N[C@@H](Cc1c[nH]c2ccccc12)C(=O)N[C@@H](CC(=O)O)C(=O)N[C@@H](Cc1c[nH]c2ccccc12)C(=O)N[C@H](C(=O)N[C@@H](CC(N)=O)C(=O)N[C@@H](CCCCN)C(N)=O)[C@@H](C)CC)[C@@H](C)CC)[C@@H](C)O)C(C)C [Compound 30] |  |  | does not show significant binding | does not inhibit | > 10 | does not show significant binding | does not inhibit; also recorded: not inhibited

The next lines start with results.

Row | Cell IC50 (human IL-17A) | pIC50 (human IL-17A) | SMILES | binding to immobilized human IL-17F homodimer (human IL-17F homodimer) | inhibition of TNF-α stimulated IL-6 production (TNF-α [1]) | weaker affinity for mouse IL-17A versus human IL-17A (mouse IL-17A) [fold] | binding to immobilized IL-17RA (IL-17RA) | inhibition of baseline IL-8, IL-6 and CCL-20 production (TNF-α [2])
4 | completely abolishes | < 6.00 | CC[C@H](C)[C@H](NC(=O)[C@H](Cc1c[nH]c2ccccc12)NC(=O)[C@H](CC(=O)O)NC(=O)[C@H](Cc1c[nH]c2ccccc12)NC(=O)[C@H](CC(C)C)NC(=O)[C@H](CC(=O)O)NC(=O)[C@H](C)NC(=O)[C@@H]1CCCN1C(=O)[C@@H](NC(=O)[C@@H](NC(=O)[C@@H](NC(=O)[C@H](Cc1c[nH]cn1)NC(C)=O)C(C)C)[C@@H](C)O)[C@@H](C)CC)C(=O)N[C@@H](CC(N)=O)C(=O)N[C@@H](CCCCN)C(N)=O [Compound 32] |  |  |  |  | 
5 | completely abolishes | < 6.00 | CC[C@H](C)[C@H](NC(=O)[C@H](Cc1c[nH]c2ccccc12)NC(=O)[C@H](CC(=O)O)NC(=O)[C@H](Cc1c[nH]c2ccccc12)NC(=O)[C@H](CC(C)C)NC(=O)[C@H](CC(=O)O)NC(=O)[C@H](C)NC(=O)[C@@H]1CCCN1C(=O)[C@@H](NC(=O)[C@@H](NC(=O)[C@@H](NC(C)=O)C(C)C)[C@@H](C)O)[C@@H](C)CC)C(=O)N[C@@H](CC(N)=O)C(=O)N[C@@H](CCCCN)C(N)=O [Compound 33] |  |  |  |  | 

pIC50: −log10 of the molar value. Entries after “also recorded” stand apart in the source; their conditions may differ.
